# Data from patent publication US5807846A, “Phosphonamide ACAT inhibitors” (Warner-Lambert Company, priority 1997, dated 1998).
# Tests used:
# [1] = system: acyl-CoA:cholesterol acyltransferase (ACAT); experiment: in vitro ACAT inhibition (LAI): radiolabeled cholesterol oleate formed from radiolabeled oleic acid in rat liver microsomes; format: biochemical; settings: read-out: LAI (IC50, concentration of test compound required to inhibit the activity of the enzyme by 50%)
# [2] = system: cholesterol; experiment: APCC in vivo screen: rats on high fat, high cholesterol diet (PCC), blood cholesterol analysis; design: species or system male Sprague-Dawley rats; settings: dose 10 mg/kg, single dose at 4 PM, PCC diet overnight, blood cholesterol at 8 AM
compound,measurement,setting,value
COP(=O)(NC(=O)Nc1c(C(C)C)cccc1C(C)C)Oc1c(C(C)C)cccc1C(C)C (centres unmarked),IC50,[1],950 nM
same,APCC,[2],-33
